This experiment concerns the target Neuronal acetylcholine receptor subunit alpha-7 (Mus musculus) (UniProt P49582). In words: Functional activity is expressed as percent efficacy for alpha-7 nAChR.

Chains of the proteins cited; added tags and fusions are not shown.
UniProt P49582, whole entry, looked up: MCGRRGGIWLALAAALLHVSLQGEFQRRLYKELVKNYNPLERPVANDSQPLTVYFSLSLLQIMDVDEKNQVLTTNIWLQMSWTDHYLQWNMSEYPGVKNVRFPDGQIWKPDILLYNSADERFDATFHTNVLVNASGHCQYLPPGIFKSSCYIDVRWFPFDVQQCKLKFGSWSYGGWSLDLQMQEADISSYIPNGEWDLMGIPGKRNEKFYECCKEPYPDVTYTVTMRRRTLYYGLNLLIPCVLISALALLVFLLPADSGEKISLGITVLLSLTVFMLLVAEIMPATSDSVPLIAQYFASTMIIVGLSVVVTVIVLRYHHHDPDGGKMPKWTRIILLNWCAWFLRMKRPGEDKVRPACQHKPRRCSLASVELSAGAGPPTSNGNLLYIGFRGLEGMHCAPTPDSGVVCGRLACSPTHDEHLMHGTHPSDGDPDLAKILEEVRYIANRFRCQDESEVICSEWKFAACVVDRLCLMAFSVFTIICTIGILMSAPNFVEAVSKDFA

Consider `O=C(OC1CN2CCC1CC2)c1c[nH]c2ccccc12` (stereo unspecified), for which the Efficacy is 42%.

The record behind these values is ChEMBL document CHEMBL1134160 (Bioorg Med Chem Lett, 2001).
